From ChEMBL document CHEMBL1132702, “5'-N-substituted carboxamidoadenosines as agonists for adenosine receptors” (J Med Chem, 1999)

The chains behind the UniProt entries cited, without tags or fusion partners.
UniProt P25099, whole entry: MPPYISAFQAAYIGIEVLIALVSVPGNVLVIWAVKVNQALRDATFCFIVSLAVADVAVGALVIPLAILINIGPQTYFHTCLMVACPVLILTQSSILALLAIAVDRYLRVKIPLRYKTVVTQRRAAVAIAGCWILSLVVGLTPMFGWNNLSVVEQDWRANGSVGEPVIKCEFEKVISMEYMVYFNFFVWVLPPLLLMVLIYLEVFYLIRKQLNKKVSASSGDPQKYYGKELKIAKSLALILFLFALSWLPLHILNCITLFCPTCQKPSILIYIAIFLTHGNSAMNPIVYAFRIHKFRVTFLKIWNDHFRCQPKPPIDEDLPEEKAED

How the values were obtained:
Adenosine receptor A1 [1] = target: T1, Adenosine receptor A1 (Rattus norvegicus, UniProt P25099); experiment: Ability to displace radioligand [3H]- DPCPX from adenosine A1 receptor on rat cortical membrane in the presence of 1 mM of GTP
Adenosine receptor A1 [2] = target: T1, Adenosine receptor A1

Question: For `Nc1ncnc2c1ncn2[C@@H]1O[C@H](C(=O)NC2CCC2)[C@@H](O)[C@H]1O`, which Ki (Adenosine receptor A1 [1]) is on record?
Answer: The Ki was 0.172 µM.

Question: What about the Ki (Adenosine receptor A1 [2]) of the same compound?
Answer: The Ki was 0.043 µM.
